Laboratory results from US20210145730A1, “PROCESS FOR PREPARING AN ORAL DISINTEGRATING DOSAGE FORM” (Zeenar Enterprises Pty Ltd, priority 2017, published 2021).

Experiment: SAXS liquid crystalline phase formation for mixes of GMO and another ingredient immersed in PBS buffer (Example 1)
Format: physicochemical
Protocol: The samples were then mixed via a roller mixer at ˜10 RPM at 40° C. for at least 3 days. One week prior to SAXS experiment, 100 mg samples were loaded into a transparent polystyrene 96 well plate (Nunc™) and immersed in 200 μL of PBS buffer (pH 6.8). The samples were stored away from light at ambient temperature, to allow the samples to reach equilibrium. The SAXS/WAXS beamline at Australian Synchrotron, Melbourne, Australia was used to determine the liquid crystalline nanostructure in the samples. A custom-designed plate holder was used to mount the samples plate directly onto the SAXS/WAXS beamline. Scans were automated using a pre-loaded set of position variables based on the well positions within the plate, the exposure time was 5 sec. Data were obtained at ambient temperature (˜22° C.). […] The 2-D diffraction images were recorded on a Pilatus 1M detector and radially integrated using the in-house software “ScatterBrain”.

In the case of Sacharin sodium, the “Liquid crystalline phase formed” value (20% and above w/w ingredient in mix with GMO) is reported as “mostly lamellar small amount”, the Phase structure (Concentration in GMO 1%) is reported as “V2(Pn3m)” and the Phase structure (Concentration in GMO 5%) is reported as “V2(Pn3m)”. The Phase structure (Concentration in GMO 10%) was “V2(Pn3m) + others”, the Phase structure (Concentration in GMO 20%) was “Lamellar” and the “Liquid crystalline phase formed” value (up to 10% w/w ingredient in mix with GMO) was “cubic”.
